Among the data in ChEMBL document CHEMBL1129773, “Novel 1,2-diarylcyclobutenes: Selective and orally active cox-2 inhibitors” (Bioorg Med Chem Lett, 1996) are IC50 values, retold here.

Sequences of proteins named here, by UniProt entry; tags and fusion partners are left off.
UniProt P23219, whole entry: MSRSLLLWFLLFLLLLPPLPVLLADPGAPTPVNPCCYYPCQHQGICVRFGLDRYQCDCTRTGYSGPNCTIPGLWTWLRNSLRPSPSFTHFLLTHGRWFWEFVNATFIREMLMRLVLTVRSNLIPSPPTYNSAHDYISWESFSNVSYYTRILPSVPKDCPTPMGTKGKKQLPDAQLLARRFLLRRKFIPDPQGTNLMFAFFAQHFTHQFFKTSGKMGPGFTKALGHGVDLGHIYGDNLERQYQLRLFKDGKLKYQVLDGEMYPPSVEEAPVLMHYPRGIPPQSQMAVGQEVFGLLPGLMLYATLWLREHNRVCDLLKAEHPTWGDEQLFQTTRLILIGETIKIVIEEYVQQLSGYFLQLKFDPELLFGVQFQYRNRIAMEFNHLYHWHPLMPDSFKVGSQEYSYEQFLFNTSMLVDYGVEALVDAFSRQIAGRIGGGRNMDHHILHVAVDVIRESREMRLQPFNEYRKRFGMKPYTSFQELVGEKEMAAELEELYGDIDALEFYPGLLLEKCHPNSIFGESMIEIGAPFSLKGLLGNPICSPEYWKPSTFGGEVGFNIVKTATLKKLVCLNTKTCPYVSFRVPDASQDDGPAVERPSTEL

The assay addresses Prostaglandin G/H synthase 1 (Homo sapiens, UniProt P23219).

For `CC1(C)C(=O)C(c2ccccc2)=C1c1ccc(S(C)(=O)=O)cc1`, 2000 nM corresponded to half-maximal inhibition (IC50).

For orientation: IC50 means the point on the concentration scale where inhibition reaches its midpoint. Low values mean higher potency, high ones lower potency.
